Test results as given in patent US9085561B2, “Cyclic urea- or lactam-substituted quinoxaline-type piperidines as ORL-1 modulators” (priority 2012, dated 2015).

How the values were obtained:
[1] = biological target: T1, human opioid receptor-like (ORL-1) (Homo sapiens, UniProt P41146); test: In vitro ORL-1 receptor [35S]GTPγS functional assay; type: biochemical; settings: procedure of Example 38; for EC50: read-out: GTPγS ORL-1 EC50 [mean ± SEM]
human μ-opioid receptor [2] = biological target: T2, human μ-opioid receptor (Homo sapiens, UniProt P35372); test: In vitro mu-opioid receptor binding assay ([3H]-diprenorphine displacement); settings: read-out: Ki [Average ± Std Deviation] Opioid Receptor Mu; binding to mu-opioid receptor, procedure of Example 39
human μ-opioid receptor [3] = biological target: T2, human μ-opioid receptor; test: In vitro mu-opioid receptor [35S]GTPγS functional assay; type: biochemical; settings: read-out: GTPγS Opioid Receptor EC50 Mu [mean ± SEM]; procedure of Example 40
kappa opioid receptor [4] = biological target: T3, kappa opioid receptor (Homo sapiens, UniProt P41145); test: In vitro kappa-opioid receptor binding assay ([3H]-U69,593 displacement); settings: read-out: Ki [Average ± Std Deviation] Opioid Receptor Kappa; binding to kappa-opioid receptor, procedure of Example 41
[5] = biological target: recombinant delta opioid receptor expressed in CHO-K1 cells (Homo sapiens, UniProt P41143); test: In vitro delta-opioid receptor binding assay ([3H]-Naltrindole displacement); settings: read-out: Ki [Average ± Std Deviation] Opioid Receptor Delta; binding to delta-opioid receptor, procedure of Example 43
kappa opioid receptor [6] = biological target: T3, kappa opioid receptor; test: In vitro kappa-opioid receptor [35S]GTPγS functional assay; settings: read-out: GTPγS Opioid Receptor EC50 Kappa [mean ± SEM]; procedure of Example 42
[7] = biological target: T1, human opioid receptor-like (ORL-1); test: In vitro ORL-1 receptor binding assay ([3H]-nociceptin displacement); settings: read-out: Ki [Average ± Std Deviation] ORL-1; binding to ORL-1 receptor, procedure of Example 37

| SMILES | GTPγS ORL-1 Emax [mean ± SEM] [1] [%] | EC50 [1] [nM] | Ki (human μ-opioid receptor [2]) [nM] | EC50 (human μ-opioid receptor [3]) [µM] | Ki (kappa opioid receptor [4]) [nM] | Ki [5] [µM] | EC50 (kappa opioid receptor [6]) [µM] | Ki [7] [nM] |
| --- | --- | --- | --- | --- | --- | --- | --- | --- |
| C[C@@H]1C[C@@H]2C[C@H](C1)C[C@@H](N1[C@@H]3CCC[C@H]1C[C@@H](n1c(=O)c(-c4cc[nH]c(=O)c4)nc4ccccc41)C3)C2 | 62.3 ± 1.8 | 1.05 | 9.32 | 2.6 | 1.4 | 2.51 | 4.64 | 1.26 |
| C[C@@H]1C[C@@H]2C[C@H](C1)C[C@@H](N1[C@@H]3CC[C@H]1C[C@@H](n1c(=O)c(-c4ccc[nH]c4=O)nc4ccccc41)C3)C2 | 57 ± 5 | 72.1 | 45.9 | > 20 | 13.9 | 6.97 | > 20 | 7.2 |
| O=C(O)CN1CCN(c2nc3ccccc3n([C@H]3C[C@H]4CC[C@@H](C3)N4C3CCCCCCC3)c2=O)CC1=O | 84 ± 1.2 | 1300 | 1600 |  | 1360 | 2.74 |  | 44.8 |
| O=C1CN(c2nc3ccccc3n([C@H]3C[C@H]4CC[C@@H](C3)N4C3CCCCCCC3)c2=O)CCN1 |  |  |  |  | 25.9 | > 20 |  | 14.6 |
| O=c1[nH]cc(-c2nc3ccccc3n([C@H]3C[C@H]4CCC[C@@H](C3)N4[C@H]3C[C@@H]4CCC[C@@H](C4)C3)c2=O)c(=O)[nH]1 | 25.3 ± 1.9 | 1.52 | 227 | > 20 | 27.7 | > 20 | > 20 | 1.47 |
| O=c1[nH]cc(Cl)cc1-c1nc2ccccc2n([C@H]2C[C@H]3CCC[C@@H](C2)N3[C@H]2C[C@@H]3CCC[C@@H](C3)C2)c1=O | 39.7 ± 2.7 | 8.5 | 100 | > 20 | 11.8 | 13.4 | > 20 | 4.1 |
| O=c1[nH]cccc1-c1nc2ccccc2n([C@H]2C[C@H]3CCC[C@@H](C2)N3C2CCCCCCCCC2)c1=O | 110.3 ± 6.6 | 22.3 | 231 | > 20 | 7.6 | 12.8 | > 20 | 3.1 |
| O=c1[nH]cccc1-c1nc2ccccc2n([C@H]2C[C@H]3CCC[C@@H](C2)N3[C@H]2C[C@@H]3CCC[C@@H](C3)C2)c1=O | 25.3 ± 0.3 | 15.1 | 286 | > 20 | 117 | > 20 | > 20 | 8.01 |
| O=c1[nH]cccc1-c1nc2ccccc2n([C@H]2C[C@H]3CC[C@@H](C2)N3[C@H]2C[C@@H]3CCC[C@@H](C3)C2)c1=O | 36.5 ± 1.7 | 35.7 | 609 | > 20 | 19.3 | > 20 | > 20 | 17 |
| O=c1[nH]cccc1-c1nc2ccccc2n([C@H]2C[C@H]3COC[C@@H](C2)N3[C@@H]2C[C@@H]3CCCC[C@@H](C3)C2)c1=O | 54.3 ± 1.9 | 86.1 | 2460 |  | 549 | > 20 | > 20 | 31.2 |
| O=c1cc(-c2nc3ccccc3n([C@H]3C[C@H]4CCC[C@@H](C3)N4[C@H]3C[C@@H]4CCC[C@@H](C4)C3)c2=O)cc[nH]1 | 28.7 ± 0.3 | 9.9 | 66 | > 20 | 82.4 | 16.5 | > 20 | 5.33 |
| O=c1ccc(-c2nc3ccccc3n([C@H]3C[C@H]4CCC[C@@H](C3)N4[C@H]3C[C@@H]4CCC[C@@H](C4)C3)c2=O)c[nH]1 | 31.3 ± 3.9 | 3.38 | 146 | > 20 | 46.7 | > 20 | > 20 | 2.2 |
| O=c1cnc(-c2nc3ccccc3n([C@H]3C[C@H]4CCC[C@@H](C3)N4[C@H]3C[C@@H]4CCC[C@@H](C4)C3)c2=O)c[nH]1 | 28.0 ± 0.6 | 1.34 | 513 | > 20 | 117 | 9.3 | > 20 | 1.72 |
| O=c1nccc(-c2nc3ccccc3n([C@H]3C[C@H]4CCC[C@@H](C3)N4[C@H]3C[C@@H]4CCC[C@@H](C4)C3)c2=O)[nH]1 | 34.7 ± 3.8 | 2 | 522 | > 20 | 77.9 | 4.35 | > 20 | 1.69 |
| O=c1c(N2CCNCC2)nc2ccccc2n1C1CCN(C2CCCCCCC2)CC1 [CC10, reference compound] |  | 553 | 1480 |  | 73.5 | 27.7 |  | 72.1 |
| NC1CCN(c2nc3ccccc3n(C3CCN(C4CCCCCCC4)CC3)c2=O)CC1 [CC22, reference compound] |  | 440 | 3040 |  | 30.4 | 19.4 |  | 35.2 |
| N[C@H]1CCN(c2nc3ccccc3n(C3CCN(C4CCCCCCC4)CC3)c2=O)C1 [CC39, reference compound] |  |  | 624 |  | 57.3 |  |  | 8.6 |
| N[C@@H]1CCN(c2nc3ccccc3n(C3CCN(C4CCCCCCC4)CC3)c2=O)C1 [CC51, reference compound] |  |  | 512 |  | 22 |  |  | 4 |
| N[C@@H]1CCN(c2nc3ccccc3n([C@H]3C[C@H]4CC[C@@H](C3)N4C3CCCCCCC3)c2=O)C1 [CC101, reference compound] | 105.7 ± 5.0 | 17 | 590 | 4.9 | 14.9 | 14 | 32.8 | 1.6 |
| O=c1cnn(-c2nc3ccccc3n([C@H]3C[C@H]4CCC[C@@H](C3)N4[C@H]3C[C@@H]4CCC[C@@H](C4)C3)c2=O)c(=O)[nH]1 [Compound B9a] | 19 ± 2 | 5.43 | 297 | > 20 | 115 | 5.82 | > 20 | 5.4 |
| O=c1cnn(-c2nc3ccccc3n([C@H]3C[C@H]4COC[C@@H](C3)N4[C@@H]3C[C@@H]4CCCC[C@@H](C4)C3)c2=O)c(=O)[nH]1 [Compound P9b, 2-(4-((1R,5S,7 S)-9-((1R,6S,8s)-bicyclo[4.3.1]decan-8-yl)-3-oxa-9-azabicyclo[3.3.1]nonan-7-yl)-3-oxo-3,4-dihydroquinoxalin-2-yl)-1,2,4-triazine-3,5(2H,4H)-dione] | 34.3 ± 4.4 |  | 10300 |  |  | > 20 |  |  |
| O=c1[nH]nc(-c2nc3ccccc3n([C@H]3C[C@H]4CCC[C@@H](C3)N4[C@H]3C[C@@H]4CCC[C@@H](C4)C3)c2=O)[nH]1 [R6a(i)(i), 1-((1R,1′R,3r,3′R,5S,5′S)-[3,9′-bi(9′-azabicyclo[3.3.1]nonan)]-3′-yl)-3-(5-oxo-4,5-dihydro-1H-1,2,4-triazol-3-yl)quinoxalin-2(1H)-one] | 23.7 ± 1.2 | 5.6 |  |  | 51.6 |  | > 20 | 0.97 |
